# From patent US11147875B2, “Compositions, combinations and related methods for photoimmunotherapy” (priority 2015, dated 2021)
# Read-outs that look alike come from different tables or passages of the source. Marks after values point to notes of the source that are not given here.
# Columns and labels:
# [1] = test system: BxPC3 cells; test: PIT with cetuximab conjugates with or without donkey anti-human-IRDye 700DX; type: cell-based; settings: 250 ng/mL 1st incubation
# Procedure: The cells were then washed one time with complete culture media, incubated for 30 minutes at 4° C. with or without 2 μg/mL Donkey anti-Human IRDye 700DX conjugated (DxHu IR700) secondary antibody diluted with complete culture media, and then washed one time with complete culture media. The cells were then illuminated with a 690 nm laser at a light dose of 16 J/cm^2 or protected from light (“no light”).
# The effect of different treatment regimens on cell death was measured using the fluorescent stain, CellTox Green (Cat No: G8731, Promega, Madison, Wis.). […] After the light treatment, all cells were incubated with 1× CellTox Green reagent diluted in complete culture media. […] The CellTox Green fluorescence signal was measured at 24 hours after light treatment using a fluorescence plate reader. The cells were then lysed with detergent, incubated at 37° C. for 30 minutes, and the CellTox Green fluorescence signal was measured again post lysis. The percent dead cells was calculated by taking the ratio between background (lx CellTox Green in complete culture media without cells) subtracted CellTox Green signal per well prior to and post lysis and multiplying the ratio by 100.
# [2] = test system: BxPC3 cells; test: Fluorescence of cells stained with cetuximab conjugates with or without secondary antibody, flow cytometry; type: cell-based; settings: 250 ng/mL 1st incubation, 2nd incubation 2 μg/mL Don × Hu IRDye 700DX
# [3] = test system: BxPC3 cells; test: PIT with cetuximab and donkey anti-human-IRDye 700DX secondary antibody; type: cell-based; settings: sequentially labeled with donkey anti-human IRDye 700DX secondary antibody
# Procedure: The cells were then washed one time with complete culture media, incubated for 30 minutes at 4° C. with or without IRDye 700DX conjugated (DxHu IRDye 700DX) secondary antibody diluted with complete culture media, and then washed one time with complete culture media. […] To induce cell killing, the cells were then illuminated with a 690 nm laser at a light dose of 16 J/cm^2 or protected from light (“no light”). Cell death was evaluated as described in Example 6 using CellTox Green.
# [4] = in vivo, cited from earlier work
# [5] = test system: Head and Neck cancer; settings: cited from earlier work
# [6] = test system: BxPC3 cells; test: PIT killing activity of dual conjugates, normalized to cetuximab-IRDye 700DX; type: cell-based; settings: solo conjugates without IRDye 700DX
# Procedure: BxPC3 cells (#CRL-1687, ATCC, Manassas Va., USA) were seeded in a 96-well, white-walled, clear bottom, tissue culture (TC)-treated polystyrene plate at a concentration of 5,000 cells/well in RPMI-1640 media supplemented with 10% FBS and 1% Penicillin/Streptomycin (complete culture media) and incubated overnight at 37° C. The following day complete culture media was replaced with fresh complete culture media alone or media containing either 500 ng/ml or 100 ng/mL of test agent as indicated, and the plate was incubated for one hour at 37° C.
# The cells were then illuminated with a 690 nm laser at a light dose of either 16 J/Cm^2 or 32 J/cm^2 or protected from light (“no light”).
# The effect of the different treatment regimens on cell death was measured using the fluorescent stain, CellTox Green (Catalog No: G8731, Promega, Madison, Wis., USA) substantially as described in Example 6.
# [7] = test system: BxPC3 cells; test: PIT with biotinylated cetuximab pre-complexed with monomeric streptavidin-IRDye 700DX; type: cell-based
# Procedure: The cells were then washed one time with complete culture media. The cells were either protected from light (light dose 0 J/cm^2) or were illuminated with a 690 nm laser with different light dosimetries (2 J/cm^2, 8 J/cm^2, 32 J/cm^2 or 64 J/cm^2). Cell death was evaluated as described in Example 6 using CellTox Green.
# The cells were then washed one time. […] The cells were then washed one time with complete culture media.
# The effect of indirect killing of cells using monomeric streptavidin-IRDye 700DX that had been exposed to different types of light was also evaluated. Thirty microliters of monomeric streptavidin-IRDye 700DX conjugate (DAR 1.35) was added per clear HPLC vial at a monomeric streptavidin conjugate concentration of 865 μg/mL. The following conditions were tested: (1) the monomeric streptavidin-IRDye 700DX conjugate was placed in a clear glass HPLC tube wrapped in aluminum foil to protect from light exposure under a halogen lamp at 2500 lux for 24 hrs (“no light”; to control for thermal heating effects); (2) the monomeric streptavidin-IRDye 700DX conjugate was placed in a clear glass HPLC tube under a halogen lamp at 2500 lux for 24 hrs (“white light”); (3) the monomeric streptavidin-IRDye 700DX conjugate was placed in a clear glass HPLC tube and exposed to green LED lamp at 2500 lux for 24 hrs (“green light”).
# [8] = test system: BxPC3 cells; test: Cell staining with dual CTX-IRDye 700DX conjugates, flow cytometry; type: cell-based; settings: excitation 488 nm, emission filter (530 nm/30 nm)
# [9] = 2nd incubation 2 μg/mL Don × Hu IRDye 700DX
substance,measurement,setting,value
cetuximab-sulfo Cy7: cetuximab directly conjugated with sulfonated Cy7,% Dead cells 690 nm Light (16 J/cm^2),[1]; [9],72.16% +/− 1.86%
same,% Dead cells No Light,[1]; [9],7.33% +/− 0.39%
same,% Dead cells 690 nm Light (16 J/cm^2),[1]; no 2nd incubation,4.36% +/− 0.36%
same,% Dead cells No Light,[1]; no 2nd incubation,6.47% +/− 0.53%
same,Fluorescence,[2],"39,341"
cetuximab IRDye 700DX (2.5) + sulfo Cy7: cetuximab directly conjugated with IR700 and sulfonated Cy7,% Dead cells 690 nm Light (16 J/cm^2),[1]; [9],94.09% +/− 1.29%
same,% Dead cells No Light,[1]; [9],8.88% +/− 1.76%
same,% Dead cells 690 nm Light (16 J/cm^2),[1]; no 2nd incubation,12.12% +/− 0.79%
same,% Dead cells No Light,[1]; no 2nd incubation,7.63% +/− 1.35%
"cetuximab: anti-EGFR antibody cetuximab (Erbitux), not conjugated",cell death,"[3]; 690 nm, 16 J/cm^2",~90%
same,cell death,[3]; no light,did not result in cell death
same,Erbitux Mean AUC0-inf,[4]; 50 mg/m2,858 +/− 271
same,Erbitux Mean AUC0-inf,[4]; 100 mg/m2,"3,038 +/− 655"
same,AUC0-∞,[4]; 250 mg/m2,"~11,812 μg/mL*h"
same,Erbitux Mean AUC0-inf,[4]; 250 mg/m2,"11,812 +/− 3,656"
same,Erbitux Mean AUC0-inf,[4]; 400 mg/m2,"24,620 +/− 9,555"
same,average systemic exposure (AUC0-inf),[4]; 400 mg/m2,"about 24,620 μg*h/mL"
same,Erbitux Mean AUC0-inf,[4]; 500 mg/m2,"24,740 +/− 8,259"
same,systemic exposure of a weekly dose,[4],"11,812 μg*h/mL"
same,% Dead cells 690 nm Light (16 J/cm^2),[1]; [9],91.76% +/− 4.2%
same,% Dead cells No Light,[1]; [9],7.66% +/− 0.50%
same,% Dead cells 690 nm Light (16 J/cm^2),[1]; no 2nd incubation,5.89% +/− 0.49%
same,% Dead cells No Light,[1]; no 2nd incubation,7.17% +/− 0.86%
same,increase of ORR in combination with chemotherapy compared to chemotherapy alone,[5]; in vivo,about 16%
same,ORR,"[5]; monotherapy, multiple doses",≤ 15%
same,Fluorescence,[2],"55,134"
cetuximab-Alexafluor488: cetuximab-Alexafluor488 solo conjugate without IRDye 700DX,PIT cell killing,[6],not able to induced PIT cell killing
Cetuximab-IRDye 680RD: cetuximab directly conjugated to IRDye 680RD,% Dead cells 690 nm Light (16 J/cm^2),[1]; [9],92.51% +/− 0.54%
same,% Dead cells No Light,[1]; [9],10.30% +/− 0.73%
same,% Dead cells 690 nm Light (16 J/cm^2),[1]; no 2nd incubation,7.03% +/− 0.18%
same,% Dead cells No Light,[1]; no 2nd incubation,12.18% +/− 3.16%
CTX-IRDye 800: cetuximab-IRDye 800 solo conjugate without IRDye 700DX,PIT cell killing,[6],not able to induced PIT cell killing
biotinylated cetuximab pre-complexed with monomeric streptavidin-IRDye 700DX: non-covalent complex of biotinylated cetuximab and monomeric streptavidin-IRDye 700DX,PIT killing activity,"[7]; 1 μg/mL, 0, 2, 8, 32, 64 J/cm^2",light dose dependent
same,PIT killing,[7]; cells pre-exposed to 100 μg/mL unconjugated cetuximab,No light-dependent PIT killing
same,PIT killing,"[7]; mSA-IRDye 700DX pre-exposed to green light, 2500 lux, 24 hours",some decrease in PIT killing
same,PIT killing,"[7]; mSA-IRDye 700DX pre-exposed to white light, 2500 lux, 24 hours",no light-dependent PIT killing
same,PIT killing,[7]; mSA-IRDye 700DX protected from light with aluminum foil,expected light-dependent killing
same,PIT killing,[7]; pre-complexed with 10× molar excess of unconjugated monomeric streptavidin,no light-dependent PIT killing
CTX700-Alexa Fluor488: cetuximab-IRDye 700DX further conjugated with Alexa Fluor 488,Fluorescence Intensity (AU),[8],515* AU
cetuximab-IRDye 700DX+IRDye 680RD: cetuximab directly conjugated with IRDye 700DX and IRDye 680RD,% Dead cells 690 nm Light (16 J/cm^2),[1]; [9],96.66% +/− 2.49%
same,% Dead cells No Light,[1]; [9],7.00% +/− 1.18%
same,% Dead cells 690 nm Light (16 J/cm^2),[1]; no 2nd incubation,38.00% +/− 2.11%
same,% Dead cells No Light,[1]; no 2nd incubation,5.92% +/− 1.08%
